Converted amounts (≈) assume the structure as drawn.
How the values were obtained:
A431 [1] = test: Inhibition of cell growth by incorporation of [3H]-thymidine, A431; assay type: cell-based; conditions: Homo sapiens, A-431, read-out: IC50 A431
NHEK = test: Inhibition of cell growth by incorporation of [3H]-thymidine, NHEK; assay type: cell-based; conditions: Homo sapiens, read-out: IC50 NHEK
HTB161 = test: Inhibition of cancer cell growth as measured by cell number, HTB161; assay type: cell-based; conditions: Homo sapiens, 48 h, read-out: IC50 HTB161
A27805 = test: Inhibition of cancer cell growth as measured by cell number, A27805; assay type: cell-based; conditions: Homo sapiens, 48 h, read-out: IC50 A27805
A2780DDP = test: Inhibition of cancer cell growth as measured by cell number, A2780DDP; assay type: cell-based; conditions: Homo sapiens, 48 h, read-out: IC50 A2780DDP
MIP = test: Inhibition of cancer cell growth as measured by cell number, MIP; assay type: cell-based; conditions: Homo sapiens, Sulforhodamine B, 48 hours exposure, Table 4
COLO205 = test: Inhibition of cancer cell growth as measured by cell number, COLO205; assay type: cell-based; conditions: Homo sapiens, COLO 205, 48 h, read-out: IC50 COLO205
CACO2 = test: Inhibition of cancer cell growth as measured by cell number, CACO2; assay type: cell-based; conditions: Homo sapiens, Caco-2, 48 h, read-out: IC50 CACO2
HCT15 = test: Inhibition of cancer cell growth as measured by cell number, HCT15; assay type: cell-based; conditions: Homo sapiens, HCT-15, 48 h, read-out: IC50 HCT15
SW948 = test: Inhibition of cancer cell growth as measured by cell number, SW948; assay type: cell-based; conditions: Homo sapiens, SW948, 48 h, read-out: IC50 SW948
B7474 = test: Inhibition of cancer cell growth as measured by cell number, B7474; assay type: cell-based; conditions: Homo sapiens, 48 h, read-out: IC50 B7474
LX1 = test: Inhibition of cancer cell growth as measured by cell number, LX1; assay type: cell-based; conditions: Homo sapiens, LX-1, 48 h, read-out: IC50 LX1
A549 = test: Inhibition of cancer cell growth as measured by cell number, A549; assay type: cell-based; conditions: Homo sapiens, A549, 48 h, read-out: IC50 A549
A431 [2] = test: Inhibition of cancer cell growth as measured by cell number, A431; assay type: cell-based, human; conditions: Homo sapiens, A-431, 48 h, read-out: IC50 A431, cell number, Sulforhodamine B, 48 hours exposure; Table 6;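 also: human A431 line, picked because it overexpresses epidermal growth factor receptor (EGFR)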
NEC = test: Inhibition of cancer cell growth as measured by cell number, NEC; assay type: cell-based; conditions: Homo sapiens, 48 h, read-out: IC50 NEC
DU145 = test: Inhibition of cancer cell growth as measured by cell number, DU145; assay type: cell-based; conditions: Homo sapiens, DU-145, 48 h, read-out: IC50 DU145
PC3 = test: Inhibition of cancer cell growth as measured by cell number, PC3; assay type: cell-based; conditions: Homo sapiens, PC-3, 48 h, read-out: IC50 PC3
HL60 = test: Inhibition of cancer cell growth as measured by cell number, HL60; assay type: cell-based; conditions: Homo sapiens, HL-60, 48 h, read-out: IC50 HL60
CCRF-CFM = test: Inhibition of cancer cell growth as measured by cell number, CCRF-CFM; assay type: cell-based; conditions: Homo sapiens, 48 h, read-out: IC50 CCRF-CFM
[3] = biological target: Epithelial Cell Kinase (ECK) (Homo sapiens, UniProt P29317); test: biochemical; conditions: Eck IC50, pH 7.2; nonradioactive format
[4] = biological target: epidermal growth factor receptor kinase (Homo sapiens, UniProt P00533); test: biochemical

Chains of the proteins cited; added tags and fusions are not shown. Residues count along the entry.
UniProt P29317, 24-976, species assumed: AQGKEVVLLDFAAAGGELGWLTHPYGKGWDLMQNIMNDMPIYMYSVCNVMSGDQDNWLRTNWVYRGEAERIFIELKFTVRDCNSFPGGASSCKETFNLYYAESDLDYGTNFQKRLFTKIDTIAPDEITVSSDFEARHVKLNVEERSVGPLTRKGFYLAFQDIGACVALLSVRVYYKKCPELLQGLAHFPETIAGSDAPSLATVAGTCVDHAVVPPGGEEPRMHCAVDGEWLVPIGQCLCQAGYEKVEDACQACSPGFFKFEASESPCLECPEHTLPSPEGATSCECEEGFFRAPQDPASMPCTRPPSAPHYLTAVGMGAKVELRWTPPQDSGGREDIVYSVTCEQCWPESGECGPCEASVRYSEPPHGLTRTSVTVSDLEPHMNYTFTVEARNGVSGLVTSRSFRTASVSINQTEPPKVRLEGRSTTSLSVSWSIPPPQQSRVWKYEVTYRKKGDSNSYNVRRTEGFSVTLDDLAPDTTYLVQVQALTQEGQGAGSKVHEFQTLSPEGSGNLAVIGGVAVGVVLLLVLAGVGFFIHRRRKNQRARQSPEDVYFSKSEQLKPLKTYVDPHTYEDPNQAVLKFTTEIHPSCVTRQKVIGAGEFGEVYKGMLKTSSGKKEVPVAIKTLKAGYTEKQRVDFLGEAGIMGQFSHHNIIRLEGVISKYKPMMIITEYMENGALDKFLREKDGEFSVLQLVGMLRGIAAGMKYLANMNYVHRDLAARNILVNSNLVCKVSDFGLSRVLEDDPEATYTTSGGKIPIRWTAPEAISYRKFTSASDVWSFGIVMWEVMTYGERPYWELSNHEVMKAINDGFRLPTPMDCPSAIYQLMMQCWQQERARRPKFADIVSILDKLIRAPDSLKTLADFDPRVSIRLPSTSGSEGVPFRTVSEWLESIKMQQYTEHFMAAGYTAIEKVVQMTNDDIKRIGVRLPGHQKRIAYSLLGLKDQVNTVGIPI
UniProt P00533, 25-1210: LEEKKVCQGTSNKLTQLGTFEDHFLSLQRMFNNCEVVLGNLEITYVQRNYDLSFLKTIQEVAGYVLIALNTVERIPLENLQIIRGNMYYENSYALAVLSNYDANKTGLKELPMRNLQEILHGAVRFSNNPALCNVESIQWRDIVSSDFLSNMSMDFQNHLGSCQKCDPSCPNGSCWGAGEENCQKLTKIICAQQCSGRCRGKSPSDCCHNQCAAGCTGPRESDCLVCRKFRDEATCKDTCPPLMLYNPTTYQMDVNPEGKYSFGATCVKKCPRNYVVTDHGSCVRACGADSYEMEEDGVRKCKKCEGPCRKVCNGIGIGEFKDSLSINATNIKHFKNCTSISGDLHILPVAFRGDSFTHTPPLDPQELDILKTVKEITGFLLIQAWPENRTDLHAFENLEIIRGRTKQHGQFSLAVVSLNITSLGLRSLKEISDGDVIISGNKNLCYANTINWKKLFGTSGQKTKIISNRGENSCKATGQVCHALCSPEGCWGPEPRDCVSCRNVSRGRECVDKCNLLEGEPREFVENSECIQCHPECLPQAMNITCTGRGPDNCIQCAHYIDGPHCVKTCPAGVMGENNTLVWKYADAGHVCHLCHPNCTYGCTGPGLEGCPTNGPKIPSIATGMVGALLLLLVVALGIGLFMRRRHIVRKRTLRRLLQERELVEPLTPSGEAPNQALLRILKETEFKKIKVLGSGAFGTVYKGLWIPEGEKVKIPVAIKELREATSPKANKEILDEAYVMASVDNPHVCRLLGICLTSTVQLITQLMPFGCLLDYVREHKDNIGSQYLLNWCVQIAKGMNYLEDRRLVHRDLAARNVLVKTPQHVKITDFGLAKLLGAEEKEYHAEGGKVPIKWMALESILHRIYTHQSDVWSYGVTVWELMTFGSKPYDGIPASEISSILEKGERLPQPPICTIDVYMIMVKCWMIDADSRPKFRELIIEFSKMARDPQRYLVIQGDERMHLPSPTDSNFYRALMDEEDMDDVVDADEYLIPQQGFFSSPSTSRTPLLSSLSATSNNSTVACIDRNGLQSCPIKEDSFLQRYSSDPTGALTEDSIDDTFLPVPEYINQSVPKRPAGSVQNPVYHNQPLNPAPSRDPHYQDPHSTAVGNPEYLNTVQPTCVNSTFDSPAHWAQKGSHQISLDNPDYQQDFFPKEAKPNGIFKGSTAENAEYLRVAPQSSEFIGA

## COc1ccc(Nc2c(C#N)cnc3cc(OC)c(OC)cc23)cc1OC [Example 43, 4-[(3,4-Dimethoxyphenyl)amino]-6,7-dimethoxy-3-quinolinecarbonitrile]
A431 [1]
  IC50: 10 µM
NHEK
  IC50: 4 µM
HTB161
  IC50: 0.534 µg/mL (≈ 1.46 µM)
A27805
  IC50: 3.42 µg/mL (≈ 9.37 µM)
A2780DDP
  IC50: 4.45 µg/mL (≈ 12.2 µM)
MIP
  IC50: 3.3 µg/mL (≈ 9.02 µM)
COLO205
  IC50: 4.18 µg/mL (≈ 11.4 µM)
CACO2
  IC50: 2.58 µg/mL (≈ 7.06 µM)
HCT15
  IC50: 0.823 µg/mL (≈ 2.25 µM)
SW948
  IC50: 4.76 µg/mL (≈ 13 µM)
B7474
  IC50: 8.18 µg/mL (≈ 22.4 µM)
LX1
  IC50: 6.12 µg/mL (≈ 16.8 µM)
A549
  IC50: 5.72 µg/mL (≈ 15.7 µM)
A431 [2]
  IC50: 1.21 µg/mL (≈ 3.31 µM)
NEC
  IC50: 4.55 µg/mL (≈ 12.5 µM)
DU145
  IC50: 3.13 µg/mL (≈ 8.57 µM)
PC3
  IC50: 7.02 µg/mL (≈ 19.2 µM)
HL60
  IC50: 1.66 µg/mL (≈ 4.53 µM)
CCRF-CFM
  IC50: 3.59 µg/mL (≈ 9.83 µM)
[3]
  IC50: > 54.7 µM
[4]
  IC50: 8 µM
